Patent publication US8563548B2, “Methylene furanone derivatives and use of said derivatives as a photoprotecting or antioxidant or depigmentation agent in cosmetic or dermatological compositions” (Pierre Fabre Dermo-Cosmetique, priority 2008, dated 2013)

Test: Antioxidant capacity by trapping the superoxide anion (photochemiluminescence with luminol)
Type: biochemical
Details: reference products; sample needed for activity equivalent to 1 μg Trolox
Method: The antioxidant capacity of 10 molecules was measured by trapping the superoxide anion: 5d, 9a, 5b, 5a, 5e, 4d, 5f, 5g, 5h, 5j.
The method consists in generating free radicals by a photochemical signal. Oxidation intensity is 1000 times higher than that obtained in normal conditions.
Thus, the superoxide radical (O2—) is generated by a photochemical reaction: L+hv(UV)+O2→L*O2→L^++O2—
Detection is done by chemiluminescence. It enables the evaluation of water-soluble and fat-soluble antioxidant molecules or extracts.
Part of the superoxide anions are quenched by antioxidants. The remaining free radicals are quantified by chemiluminescence. L^++O2^−→N2+AP*^2−→AP^2−+hv (luminescence)
The results are expressed respectively in equivalent quantity of vitamin C or Trolox (6-hydroxy-2,5,7,8-tetramethylchroman-2-carboxylic acid). Sensitivity is on the order of a nanomole.
The analysis of the results depends on two criteria: shape of the curve and numerical value given by the software.
The results will be expressed in μg of sample necessary to obtain an activity equivalent to the activity detected for 1 μg of the standard (ascorbic acid or Trolox).

**Q.** For “Albumin: reference product in the antioxidant comparison table [reference compound]”, which “μg of sample for 1 μg of Trolox” value is on record?
**A.** Its value is 3069 µg.
